Paper PMC4059180 (Journal of medicinal chemistry, 2013)

System: mFAP transfected HEK293 cells
Settings: 48 h, CellTiter-Blue

CC(C)[C@H](N)C(=O)N1CCC[C@H]1B(O)O [Compound 20, (S)-Valinyl-(R)-boroproline]
cytotoxicity: lack cytotoxicity
